This assay addresses MEK1 (Homo sapiens, UniProt Q02750). The assay can be described thus: MEK Inhibition Assay-1 (Example 2): 33P-ATP, P81 filter-binding kinase assay. The conditions noted are these: read-out: Assay 1: biochemical MEK IC50, Table 10, compounds of formula (IV). The protocol:
The following procedure can be used to measure biochemical activity. MEK1 inhibitory activity of compounds were tested using the following procedure. […] Nat Biotechnoi 2011, 29(11), 1039-45.
• Reaction buffer: 20 mM Hepes (pH 7.5), 10 mM MgCl2, 1 mM EGTA, 0.02% Brij35, 0.02 mg/mL BSA, 0.1 mM Na3VO4, 2 mM DTT, 1% DMSO • Enzyme: MEK1, Invitrogen cat #PV3303 • N-terminal His-tagged recombinant human full length protein, expressed in insect cells. Activated in vitro by RAF1. MW=49.2 kDa, GenBank Accession No. NP_002746. • Substrate: 5 μM ERK2 (K52R), • Kinase-dead mutant, (GenBank Accession No. NM_0011949), aa2-358 with N-terminal His6 tag, MW=43.63 kDa, expressed in E. coli.
The substrate was prepared in freshly prepared Reaction Buffer. The kinase was delivered into the substrate solution and gently mixed. Test compounds were delivered in 100% DMSO into the kinase reaction mixture by Acoustic technology (Echo550; nanoliter range), and incubated for 20 min at room temperature. ^33P-ATP was delivered into the reaction mixture to initiate the reaction. The reaction mixture was incubated for 2 hours at room temperature. Kinase activity was detected by P81 filter-binding method.

The chains behind the UniProt entries cited, without tags or fusion partners.
UniProt Q02750, whole entry: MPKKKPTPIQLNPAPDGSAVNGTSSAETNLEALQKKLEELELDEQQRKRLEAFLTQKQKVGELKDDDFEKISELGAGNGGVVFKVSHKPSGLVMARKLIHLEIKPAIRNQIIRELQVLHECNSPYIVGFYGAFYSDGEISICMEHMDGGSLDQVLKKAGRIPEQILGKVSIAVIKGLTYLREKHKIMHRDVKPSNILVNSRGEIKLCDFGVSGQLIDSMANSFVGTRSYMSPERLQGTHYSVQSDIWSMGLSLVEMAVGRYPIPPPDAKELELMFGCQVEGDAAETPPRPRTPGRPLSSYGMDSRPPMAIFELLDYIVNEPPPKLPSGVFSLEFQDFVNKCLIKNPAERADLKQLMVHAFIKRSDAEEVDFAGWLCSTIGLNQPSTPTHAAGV

Each structure is given as a SMILES string.

The IC50 is the concentration needed to halve the response being measured. Consider `CC(=O)c1sc(Nc2ccc(I)cc2F)c(C(=O)NOCC2COC2)c1C`, for which the IC50 fell in the range of 1 to 5 µM.

The values above are taken from US20230013227A1, “ARYL-ANILINE AND HETEROARYL-ANILINE COMPOUNDS FOR TREATMENT OF BIRTHMARKS” (NFlection Therapeutics, Inc., priority 2018, published 2023).
